Experiments:
[1] = target: T1, EP300 (Homo sapiens, UniProt Q09472); assay: BROMOscan BromoKdMAX; type: binding
T1 construct: T7 phage strains displaying bromodomains were grown in parallel; purchased DiscoverX (BROMOscan / BromoKdMAX service); host or cells: T7 phage in E. coli host derived from BL21
Procedure: (§1) A BromoKdMAX was performed at DiscoverX.
(§2) The assay principle is the following: BROMOscan™ is a novel industry leading platform for identifying small molecule bromodomain inhibitors. Based on proven KINOMEscan™ technology, BRO-MOscan™ employs a proprietary ligand binding site-directed competition assay to quantitatively measure interactions between test compounds and bromodomains.
(§3) The assay was conducted as follows: For the Bromodomain assays, T7 phage strains displaying bromodomains were grown in parallel in 24-well blocks in an E. coli host derived from the BL21 strain. E. coli were grown to log-phase and infected with T7 phage from a frozen stock (multiplicity of infection=0.4) and incubated with shaking at 32° C. until lysis (90-150 minutes). The lysates were centrifuged (5,000×g) and filtered (0.2 μm) to remove cell debris. […] The liganded beads were blocked with excess biotin and washed with blocking buffer (SeaBlock (Pierce), 1% BSA, 0.05% Tween 20, 1 mM DTT) to remove unbound ligand and to reduce non-specific phage binding. […] Test compounds were prepared as 1000× stocks in 100% DMSO. Kds were determined using an 11-point 3-fold compound dilution series with one DMSO control point. […] The compounds were then diluted directly into the assays such that the final concentration of DMSO was 0.09%. […] The bromodomain concentration in the eluates was measured by qPCR.

Chains of the proteins cited; added tags and fusions are not shown. Residues count along the entry.
UniProt Q09472, 1049-1156 limits assumed: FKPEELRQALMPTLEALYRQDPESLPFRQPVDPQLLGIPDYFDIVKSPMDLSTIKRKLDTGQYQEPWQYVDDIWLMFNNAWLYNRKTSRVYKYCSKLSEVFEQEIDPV
UniProt Q92793, 1085-1192 limits assumed: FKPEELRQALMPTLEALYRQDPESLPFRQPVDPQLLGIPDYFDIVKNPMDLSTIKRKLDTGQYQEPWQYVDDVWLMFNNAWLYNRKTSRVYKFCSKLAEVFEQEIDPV

[2] = target: T2, CREBBP (Homo sapiens, UniProt Q92793); assay: BROMOscan BromoKdMAX; type: binding
T2 construct: T7 phage strains displaying bromodomains were grown in parallel; purchased DiscoverX (BROMOscan / BromoKdMAX service); host or cells: T7 phage in E. coli host derived from BL21
Procedure: as §1, §2, §3

- Kd [1]: 0.26 nM
- Kd [2]: 0.47 nM
Compound: CO[C@H]1CC[C@H](n2c([C@@H]3CCCC(=O)N3c3ccc(F)c(F)c3)nc3cc(-c4c(C)noc4C)ccc32)CC1 [CCS1477]

Reference: patent US20230255966A1, “A COMBINATION OF A CBP/P300 BROMODOMAIN INHIBITOR AND AN EGFR INHIBITOR FOR USE IN TREATING EGFR-MUTANT NSCLC” (TOLREMO THERAPEUTICS AG, priority 2020, published 2023)
